From ChEMBL document CHEMBL1125132, “Synthesis and inhibitory potency of peptides corresponding to the subunit 2 C-terminal region of herpes virus ribonucleotide reductases” (J Med Chem, 1990)

Target: Ribonucleoside-diphosphate reductase large subunit (Herpes simplex virus (type 1 / strain 17), UniProt P08543)
Experiment: Inhibitory activity against HSV-1 Ribonucleoside diphosphate reductase was determined
Set-up: species or system Human alphaherpesvirus 1

## CC(C)C[C@H](NC(=O)[C@H](CC(=O)O)NC(=O)[C@H](CC(N)=O)NC(=O)[C@@H](NC(=O)[C@@H](N)C(C)C)C(C)C)C(=O)O
  IC50: 36 µM
